Data as given in patent US20050214870A1, “Assay” (priority 2001, published 2005).

Chains of the proteins cited; added tags and fusions are not shown. Lines headed by an entry give the natural chain unless they say otherwise; changes in a name come on top.
UniProt Q12809: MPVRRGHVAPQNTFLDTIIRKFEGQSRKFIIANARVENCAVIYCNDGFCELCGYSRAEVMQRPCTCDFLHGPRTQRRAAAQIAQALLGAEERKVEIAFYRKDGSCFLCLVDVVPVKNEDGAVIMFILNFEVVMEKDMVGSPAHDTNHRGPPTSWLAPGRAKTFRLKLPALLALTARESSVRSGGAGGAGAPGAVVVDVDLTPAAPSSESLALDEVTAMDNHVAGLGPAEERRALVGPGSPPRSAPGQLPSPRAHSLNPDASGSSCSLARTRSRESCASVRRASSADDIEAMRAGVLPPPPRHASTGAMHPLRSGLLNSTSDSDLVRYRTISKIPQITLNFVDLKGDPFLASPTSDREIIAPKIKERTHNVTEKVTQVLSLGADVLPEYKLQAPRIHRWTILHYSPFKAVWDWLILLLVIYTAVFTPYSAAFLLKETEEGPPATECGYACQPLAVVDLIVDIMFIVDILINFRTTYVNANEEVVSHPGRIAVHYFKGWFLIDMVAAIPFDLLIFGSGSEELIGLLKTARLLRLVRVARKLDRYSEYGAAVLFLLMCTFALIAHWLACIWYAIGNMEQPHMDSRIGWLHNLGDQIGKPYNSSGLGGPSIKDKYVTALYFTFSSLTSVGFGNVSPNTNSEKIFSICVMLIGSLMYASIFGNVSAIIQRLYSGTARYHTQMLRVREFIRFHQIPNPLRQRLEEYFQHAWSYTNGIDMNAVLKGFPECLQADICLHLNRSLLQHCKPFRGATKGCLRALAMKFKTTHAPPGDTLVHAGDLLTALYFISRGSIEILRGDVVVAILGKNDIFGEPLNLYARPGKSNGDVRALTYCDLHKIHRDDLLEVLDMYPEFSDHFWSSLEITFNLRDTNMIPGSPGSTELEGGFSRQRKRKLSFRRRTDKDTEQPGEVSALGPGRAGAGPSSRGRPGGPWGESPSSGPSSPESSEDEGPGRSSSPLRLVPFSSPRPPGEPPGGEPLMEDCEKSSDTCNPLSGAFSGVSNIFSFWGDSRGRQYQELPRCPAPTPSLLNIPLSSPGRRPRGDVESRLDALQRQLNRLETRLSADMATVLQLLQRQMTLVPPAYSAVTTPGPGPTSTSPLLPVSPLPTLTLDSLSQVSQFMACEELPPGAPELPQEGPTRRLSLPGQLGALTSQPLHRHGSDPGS

Biological target: human HERG K+ channel (Homo sapiens, UniProt Q12809)

Compound: CN(CCOc1ccc(NS(C)(=O)=O)cc1)CCc1ccc(NS(C)(=O)=O)cc1 [Dofetilide]
- inhibition of specific binding of [3H]-dofetilide: complete inhibition

Compound: [^3H]-dofetilide
- Bmax: 7.4 ± 0.7 pmol/mg
- Kd: 5.08 ± 1 nM

Compound: COc1cc(N)c(Cl)cc1C(=O)NC1CCN(CCCOc2ccc(F)cc2)CC1OC (stereo not shown) [Cisapride]
- inhibition of specific binding of [3H]-dofetilide: complete inhibition
